Test results published in ChEMBL document CHEMBL3758122, “Multitarget opioid ligands in pain relief: New players in an old game” (Eur J Med Chem, 2016).

By UniProt entry, the sequences of proteins in these tests, tags left out.
UniProt P41143, whole entry: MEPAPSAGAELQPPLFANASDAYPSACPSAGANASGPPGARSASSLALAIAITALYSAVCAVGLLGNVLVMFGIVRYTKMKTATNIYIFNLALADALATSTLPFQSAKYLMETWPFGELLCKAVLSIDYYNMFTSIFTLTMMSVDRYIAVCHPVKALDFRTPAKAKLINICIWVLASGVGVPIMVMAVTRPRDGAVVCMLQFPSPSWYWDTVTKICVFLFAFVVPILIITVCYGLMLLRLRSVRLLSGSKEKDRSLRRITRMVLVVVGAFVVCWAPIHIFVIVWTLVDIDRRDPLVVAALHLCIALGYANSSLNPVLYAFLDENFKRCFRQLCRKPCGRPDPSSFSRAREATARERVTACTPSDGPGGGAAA
UniProt P35372, whole entry: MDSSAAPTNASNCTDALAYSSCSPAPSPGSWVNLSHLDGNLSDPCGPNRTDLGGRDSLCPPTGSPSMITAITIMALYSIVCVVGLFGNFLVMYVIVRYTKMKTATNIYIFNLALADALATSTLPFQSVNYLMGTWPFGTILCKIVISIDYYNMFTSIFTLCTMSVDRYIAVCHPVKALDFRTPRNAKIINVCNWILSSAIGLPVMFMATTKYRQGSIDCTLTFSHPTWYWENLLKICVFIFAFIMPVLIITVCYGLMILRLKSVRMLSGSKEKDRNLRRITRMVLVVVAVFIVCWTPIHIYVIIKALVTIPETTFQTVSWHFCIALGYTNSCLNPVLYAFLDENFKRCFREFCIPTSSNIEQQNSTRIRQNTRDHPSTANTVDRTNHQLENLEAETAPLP

Columns and labels:
[1] = molecular target: Delta-type opioid receptor (Homo sapiens, UniProt P41143); assay: Binding affinity at delta opioid receptor (unknown origin)
Mu-type opioid receptor = Mu-type opioid receptor (Homo sapiens, UniProt P35372); assay: Binding affinity at mu opioid receptor (unknown origin)

Compound	Ki [1] [nM]	Ki (Mu-type opioid receptor) [nM]
Cc1cc(O)cc(C)c1C[C@H](N)C(=O)N[C@H](CCCNC(=N)N)C(=O)N[C@@H](Cc1ccccc1)C(=O)N[C@@H](CCCCN)C(N)=O	2100	
Oc1ccc2c(c1)[C@@]13CCCC[C@H]1[C@@H](C2)N(CC1CCC1)CC3 [BUTORPHAN]		0.12
